Experiments:
[1] = biological target: T1, GABARAPL1 (Homo sapiens, UniProt Q9H0R8); experiment: BLI, LIR peptide binding to GABARAPL1; conditions: non linear regression, n=2 independent experiments
T1 construct: GST (followed by 3C protease site) (N); made in house; host or cells: bacteria (E. coli BL21 (DE3) pLysS is stated for the GST-ATG8 proteins of the overlay assay)
Protocol: (§1) For recombinant protein expression in bacteria, a modified plasmid of pGEX-6P2 (GE Healthcare) (referred to as pAL) containing an N-terminal […] followed by a 3C protease cleavage site was used.
(§2) Expression was induced by the addition of 0.5 mM IPTG at OD600 = 0.6 and cells were incubated at 25 °C overnight or at 37 °C for 5 h. Harvested cells were lysed in 50 mM Tris-HCl, pH 8.0, 500 mM NaCl, 0.1% Triton X-100, 0.4 mM 4-(2-aminoethyl)-benzenesulfonylfluoride HCl (AEBSF), and 15 µg/ml benzamidine. Fusion protein was batch adsorbed onto Glutathione-Sepharose 4B beads (GE Healthcare). After five washes with wash buffer (50 mM Tris, pH 8.0, 250 mM NaCl, 0.4 mM AEBSF, and 15 µg/ml benzamidine), fusion proteins were eluted in 50 mM Tris, pH 8.0, 2 mM L-glutathione reduced, 0.4 mM AEBSF, and 15 µg/ml benzamidine.
(§3) The biosensor tip surface immobilized with a ligand is incubated with an analyte in solution, resulting in an increase in optical thickness at the biosensor tip and a wavelength shift, which is a direct measure of the change in thickness. […] Ligand-loaded SA biosensors were then incubated with different concentrations of ATG8. All binding experiments were performed in solid-black 96-well plates containing 200 μl of solution (25 mM Tris, pH 7.5, 150 mM NaCl, 0.5 mM TCEP, 0.1% Tween-20, 1 mg/ml bovine serum albumin (BSA)) in each well at 25 °C with an agitation speed of 1000 rpm. Each measurement was repeated two to five times.
(§4) Peptides were synthesized using FMOC (fluorenylmethoxycarbonyl) solid-phase peptide chemistry by the Francis Crick Peptide Chemistry Technology Platform and are listed in Supplementary Table 2.

By UniProt entry, the sequences of proteins in these tests, tags left out. Where a name states a change or a piece, a line headed by the entry shows the natural chain unless it says otherwise.
UniProt Q9H0R8, whole entry: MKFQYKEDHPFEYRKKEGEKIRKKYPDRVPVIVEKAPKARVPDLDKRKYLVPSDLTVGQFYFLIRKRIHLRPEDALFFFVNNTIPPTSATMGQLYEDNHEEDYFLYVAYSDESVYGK
UniProt Q9BXW4: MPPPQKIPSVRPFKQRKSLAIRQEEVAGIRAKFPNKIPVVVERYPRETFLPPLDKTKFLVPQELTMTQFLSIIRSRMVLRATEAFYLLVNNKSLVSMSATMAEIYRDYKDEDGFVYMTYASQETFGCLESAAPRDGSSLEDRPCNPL

[2] = biological target: T2, LC3B K30R (Homo sapiens, UniProt Q9GZQ8, K30R); experiment: BLI, LIR peptide binding to LC3B K30R; conditions: best-fit value of BLI response; PCM1 WT LIR peptide; n=4
T2 construct: GST (followed by 3C protease site) (N); made in house
Protocol: as §1, §3, §4

[3] = biological target: T3, LC3A (Homo sapiens, UniProt Q9H492); experiment: Bio-layer interferometry (BLI), LIR peptide binding to LC3A; conditions: non linear regression, n=4 independent experiments
T3 construct: GST (followed by 3C protease site) (N); made in house; host or cells: bacteria (E. coli BL21 (DE3) pLysS is stated for the GST-ATG8 proteins of the overlay assay)
Protocol: as §1, §2, §3, §4

[4] = biological target: T4, LC3C (Homo sapiens, UniProt Q9BXW4); experiment: BLI, LIR peptide binding to LC3C; conditions: non linear regression, n=4 independent experiments
T4 construct: GST (followed by 3C protease site) (N); made in house; host or cells: bacteria (E. coli BL21 (DE3) pLysS is stated for the GST-ATG8 proteins of the overlay assay)
Protocol: as §1, §2, §3, §4

[5] = biological target: T5, GABARAP R28K (Homo sapiens, UniProt O95166, R28K); experiment: BLI, LIR peptide binding to GABARAP R28K; conditions: best-fit value of BLI response; PCM1 WT LIR peptide; n=5
T5 construct: GST (followed by 3C protease site) (N); made in house
Protocol: as §1, §3, §4

[6] = biological target: T6, GABARAP L63I (Homo sapiens, UniProt O95166, L63I); experiment: BLI, LIR peptide binding to GABARAP L63I; conditions: best-fit value of BLI response; PCM1 WT LIR peptide; n=4
T6 construct: GST (followed by 3C protease site) (N); made in house
Protocol: as §1, §3, §4

[7] = biological target: T7, GABARAP K24Q/Y25H/R28K (Homo sapiens, UniProt O95166, K24Q/R28K/Y25H); experiment: BLI, LIR peptide binding to GABARAP K24Q/Y25H/R28K; conditions: best-fit value of BLI response; PCM1 WT LIR peptide; n=4
T7 construct: GST (followed by 3C protease site) (N); made in house
Protocol: as §1, §3, §4

[8] = biological target: T8, LC3B Q26K (Homo sapiens, UniProt Q9GZQ8, Q26K); experiment: BLI, LIR peptide binding to LC3B Q26K; conditions: best-fit value of BLI response; PCM1 WT LIR peptide; n=5
T8 construct: GST (followed by 3C protease site) (N); made in house
Protocol: as §1, §3, §4

[9] = biological target: T9, GABARAP L55V (Homo sapiens, UniProt O95166, L55V); experiment: BLI, LIR peptide binding to GABARAP L55V; conditions: best-fit value of BLI response; PCM1 WT LIR peptide; n=4
T9 construct: GST (followed by 3C protease site) (N); made in house
Protocol: as §1, §3, §4

[10] = biological target: T10, GABARAP K24Q (Homo sapiens, UniProt O95166, K24Q); experiment: BLI, LIR peptide binding to GABARAP K24Q; conditions: best-fit value of BLI response; PCM1 WT LIR peptide; n=4
T10 construct: GST (followed by 3C protease site) (N); made in house
Protocol: as §1, §3, §4

[11] = biological target: T11, GABARAP Q59E (Homo sapiens, UniProt O95166, Q59E); experiment: BLI, LIR peptide binding to GABARAP Q59E; conditions: best-fit value of BLI response; PCM1 WT LIR peptide; n=4
T11 construct: GST (followed by 3C protease site) (N); made in house
Protocol: as §1, §3, §4

[12] = biological target: T12, GABARAP F62K (Homo sapiens, UniProt O95166, F62K); experiment: BLI, LIR peptide binding to GABARAP F62K; conditions: best-fit value of BLI response; PCM1 WT LIR peptide; n=4
T12 construct: GST (followed by 3C protease site) (N); made in house
Protocol: as §1, §3, §4

[13] = biological target: T13, GABARAP Y25H (Homo sapiens, UniProt O95166, Y25H); experiment: BLI, LIR peptide binding to GABARAP Y25H; conditions: best-fit value of BLI response; PCM1 WT LIR peptide; n=4
T13 construct: GST (followed by 3C protease site) (N); made in house
Protocol: as §1, §3, §4

[14] = biological target: T14, LC3B Q26K/H27Y/E62Q (Homo sapiens, UniProt Q9GZQ8, E62Q/H27Y/Q26K); experiment: BLI, LIR peptide binding to LC3B Q26K/H27Y/E62Q; conditions: best-fit value of BLI response; PCM1 WT LIR peptide; n=2
T14 construct: GST (followed by 3C protease site) (N); made in house
Protocol: as §1, §3, §4

[15] = biological target: T15, LC3B H27Y (Homo sapiens, UniProt Q9GZQ8, H27Y); experiment: BLI, LIR peptide binding to LC3B H27Y; conditions: best-fit value of BLI response; PCM1 WT LIR peptide; n=5
T15 construct: GST (followed by 3C protease site) (N); made in house
Protocol: as §1, §3, §4

[16] = biological target: T16, LC3B Q26K/H27Y/K30R (Homo sapiens, UniProt Q9GZQ8, H27Y/K30R/Q26K); experiment: BLI, LIR peptide binding to LC3B Q26K/H27Y/K30R; conditions: best-fit value of BLI response; PCM1 WT LIR peptide; n=4
T16 construct: GST (followed by 3C protease site) (N); made in house
Protocol: as §1, §3, §4

[17] = biological target: T17, GABARAP K24Q/Y25H/Q59E/F60L (Homo sapiens, UniProt O95166, F60L/K24Q/Q59E/Y25H); experiment: BLI, LIR peptide binding to GABARAP K24Q/Y25H/Q59E/F60L; conditions: best-fit value of BLI response; PCM1 WT LIR peptide; n=2
T17 construct: GST (followed by 3C protease site) (N); made in house
Protocol: as §1, §3, §4

[18] = biological target: T18, GABARAP (Homo sapiens, UniProt O95166); experiment: BLI, LIR peptide binding to GABARAP; conditions: non linear regression, n=4 independent experiments
T18 construct: GST (followed by 3C protease site) (N); made in house; host or cells: bacteria (E. coli BL21 (DE3) pLysS is stated for the GST-ATG8 proteins of the overlay assay)
Protocol: as §1, §2, §3, §4

CC[C@H](C)[C@H](NC(=O)[C@@H](NC(=O)[C@H](CC(C)C)NC(=O)[C@H](CCCCN)NC(=O)[C@H](CC(C)C)NC(=O)[C@@H]1CCCN1C(=O)[C@H](CC(C)C)NC(=O)[C@H](CC(=O)O)NC(=O)[C@H](CCC(=O)O)NC(=O)[C@@H](NC(=O)[C@H](CCCCN)NC(=O)[C@@H](NC(=O)[C@H](Cc1ccccc1)NC(=O)[C@H](CC(=O)O)NC(=O)[C@H](CCC(=O)O)NC(=O)[C@H](CCC(=O)O)NC(=O)[C@H](CC(=O)O)NC(=O)[C@H](CO)NC(=O)[C@H](CCCCN)NC(=O)[C@H](CCC(N)=O)NC(=O)[C@@H](N)CO)C(C)C)C(C)C)[C@@H](C)O)C(=O)O [PCM1 WT]
Rmax (best-fit value, theoretical response maxium) [1]: 2.385
Rmax [2]: 2.554
Rmax (best-fit value, theoretical response maxium) [3]: 3.1
Rmax (best-fit value, theoretical response maxium) [4]: 1.702
Rmax [5]: 2.903
Rmax [6]: 3.273
Rmax [7]: 2.743
Rmax [8]: 2.657
Rmax [9]: 2.828
Rmax [10]: 2.455
Rmax [11]: 2.292
Rmax [12]: 3.015
Rmax [13]: 2.405
Rmax [14]: 1.991
Rmax [15]: 2.232
Rmax [16]: 2.239
Rmax [17]: 2.029
Rmax (best-fit value, theoretical response maxium) [18]: 1.866
